Values of other authors, collected in patent publication US6207411A, “Bacteriocins” (priority 1995, dated 2001).

Test system: proteases
Conditions: nisin, background, cited from earlier work

Which results are given for nisin?
Sensitivity to alpha-chymotrypsin: degraded; Sensitivity to carboxypeptidase A: insensitive; Sensitivity to elastase: insensitive; Sensitivity to erepsin: insensitive; Sensitivity to pancreatin: degraded; Sensitivity to pepsin: insensitive; Sensitivity to subtilopeptidase: degraded; Sensitivity to trypsin: not sensitive; Sensitivity to alpha-chymotrypsin (listed as Nisin): inactivated; Sensitivity to pancreatin (listed as Nisin): inactivated; Sensitivity to subtilopeptidase (listed as Nisin): inactivated; Sensitivity to trypsin (listed as Nisin): insensitive

Like-named read-outs stand apart in the source and are kept apart here.
